{"source": "patent US5411984A", "about": "“Water soluble analogs and prodrugs of taxol” (Virginia Tech Intellectual Properties, Inc., priority 1992, dated 1995)", "origin": "cited, not measured here", "system": "tubulin", "settings": "cited from earlier work"}
{"smiles": "COc1cc2c(c(OC)c1OC)-c1ccc(OC)c(=O)cc1[C@@H](NC(C)=O)CC2", "note": "[colchicine]", "values": [{"measurement": "effect on microtubule / tubulin polymer formation", "value": "prevent microtubule formation"}]}
